For this data set the following is noted: water.

As for `NCCO` [Ethanolamine], the “Dissolved (50 in g in 1) at 50° C.” value (Aramchol free acid and base 1:1, 50° C.) was “Yes”. Moreover, the “salt remains in solution after cooling to 20° C.” value (cooled to 20° C.) is reported as “no”.

The record behind these values is US20210230213A1, “ARAMCHOL SALTS” (GALMED RESEARCH AND DEVELOPMENT LTD., priority 2013, published 2021).
